Results taken from patent US20080089927A1, “Methods for Coacervation Induced Liposomal Encapsulation and Formulations Thereof” (priority 2006, published 2008).

Conditions: BSA dissolved in water at pH 7.0

Substance: Bovine Serum Albumin [BSA]
- ethanol concentration above which coacervate phase forms: exceeds 45 wt %
